System: wild-type HCV replicon (GS4.1 cells)
Settings: wild-type GS4.1 replicon cells
Protocol: 1. […] Huh-7 cells were seeded into column 1 of each plate at a similar density.
2. […] Eight additional 3-fold serial dilutions of each compound were prepared from the 2× stock in assay medium. Final drug concentrations ranged from 100 to 0.015 μM.
3. […] This setup was run in duplicate in each 96-well plate.
4. Cells were incubated with inhibitors for three days at 37° C./5% CO2.
1. After three days of drug treatment, media was removed from the plates via gentle tapping and the cells were fixed to the plates with 100 μL/well of 1:1 acetone:methanol.
2. After one minute of incubation at room temperature, plates were washed three times with 100 μL/well of ELISA wash solution and then blocked with 150 μL/well of 10% FBS-TNE.
3. After a one hour incubation at room temperature, plates were washed three times with 100 μL/well of ELISA wash solution, and then 100 μL/well of mouse anti-hepatitis C […] mAb (1 mg/mL stock diluted 1:1,500 in 10% FBS-TNE) was added.
4. Following 2 hours of incubation at 37° C., plates were washed three times with 100 μL/well of ELISA wash solution, and then 100 μL/well of HRP-goat anti-mouse antibody (diluted 1:4,000 in 10% FBS-TNE) was added.
4. […]
6. The absorbance was measured at 490 nm on a Victor^3 V 1420 multilabel counter (Perkin Elmer). The percent inhibition of HCV replicon replication was calculated for each drug using an average of the duplicate wells.

With NC(=O)c1ncn([C@@H]2O[C@H](CO)[C@@H](O)[C@H]2O)n1 [RBV, ribavirin, reference compound] the “fold less active than Compound 1” value was “approximately 126 fold”.

Reference: patent publication US20100003217A1, “Compounds and Pharmaceutical Compositions for the Treatment of Viral Infections” (priority 2008, published 2010)
